Experimental data taken from patent US20040068113A1, “Substituted polycyclic aryl and heteroaryl pyridines useful for selective inhibition of the coagulation cascade” (priority 2003, published 2004).
pIC50: −log10 of the molar value. Where two headings read alike, the source gives them in different places.

Amino acid sequences for entries named in this document (tags omitted). Residues count along the entry.
UniProt P00742, 41-179 limits assumed: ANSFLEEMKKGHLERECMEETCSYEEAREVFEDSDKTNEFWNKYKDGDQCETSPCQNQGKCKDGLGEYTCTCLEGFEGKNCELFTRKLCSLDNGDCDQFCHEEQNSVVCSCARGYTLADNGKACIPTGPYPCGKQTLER
UniProt P00742, 235-488 limits assumed: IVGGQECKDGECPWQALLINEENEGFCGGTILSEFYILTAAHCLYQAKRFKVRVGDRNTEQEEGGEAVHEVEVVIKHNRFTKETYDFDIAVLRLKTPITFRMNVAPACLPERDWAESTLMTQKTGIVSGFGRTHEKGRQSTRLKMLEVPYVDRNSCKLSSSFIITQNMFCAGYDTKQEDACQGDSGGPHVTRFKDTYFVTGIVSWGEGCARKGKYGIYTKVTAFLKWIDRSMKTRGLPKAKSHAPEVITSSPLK
UniProt P08709, 61-212 limits assumed: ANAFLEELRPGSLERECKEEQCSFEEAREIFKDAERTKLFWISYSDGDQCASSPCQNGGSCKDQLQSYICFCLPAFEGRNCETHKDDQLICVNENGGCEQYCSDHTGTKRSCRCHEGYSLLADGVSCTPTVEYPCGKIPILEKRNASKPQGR
UniProt P08709, 213-466 limits assumed: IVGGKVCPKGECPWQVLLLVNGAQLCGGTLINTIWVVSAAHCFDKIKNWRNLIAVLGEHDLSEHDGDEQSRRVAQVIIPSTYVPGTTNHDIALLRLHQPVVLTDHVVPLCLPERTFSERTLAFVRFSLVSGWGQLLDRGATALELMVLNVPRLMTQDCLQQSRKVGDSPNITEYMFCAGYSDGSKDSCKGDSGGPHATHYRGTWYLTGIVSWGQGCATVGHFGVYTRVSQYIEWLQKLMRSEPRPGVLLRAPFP
UniProt P00761, 9-231 limits assumed: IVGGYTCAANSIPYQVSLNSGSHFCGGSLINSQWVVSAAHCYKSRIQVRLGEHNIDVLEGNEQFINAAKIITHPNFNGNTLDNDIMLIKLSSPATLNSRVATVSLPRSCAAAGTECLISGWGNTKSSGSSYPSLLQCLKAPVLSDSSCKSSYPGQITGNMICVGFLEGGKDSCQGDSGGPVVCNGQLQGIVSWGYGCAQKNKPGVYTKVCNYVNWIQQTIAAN
UniProt P13726, 33-251 partner limits assumed: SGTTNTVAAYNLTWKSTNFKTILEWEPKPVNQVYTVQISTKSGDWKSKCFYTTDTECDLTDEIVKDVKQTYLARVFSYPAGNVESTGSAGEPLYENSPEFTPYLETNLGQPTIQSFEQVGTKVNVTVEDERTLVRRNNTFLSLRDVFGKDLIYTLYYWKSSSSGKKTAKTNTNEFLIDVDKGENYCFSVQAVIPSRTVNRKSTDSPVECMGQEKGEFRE

Columns and labels:
[1] = biological target: Human factor Xa (Homo sapiens, UniProt P00742); assay: Xa Assay; details: read-out: Factor Xa IC50
Procedure: (§1) Human factor Xa (0.3 nM) and 0.15 mM N-a-Benzyloxycarbonyl-D-arginyl-L-glycyl-L-arginine-p-nitroaniline-dihydrochloride (S-2765) are added to a 96-well assay plate containing either inhibitor or buffer (50 mM Tris-HCl, pH 8.0, 100 mM NaCl, 0.1% BSA). The reaction, in a final volume of 100 ul is measured immediately at 405 nm to determine background absorbance. The plate is incubated at room temperature for 60 min, at which time the rate of hydrolysis of the substrate is measured by monitoring the reaction at 405 nm for the release of p-nitroaniline. Percent inhibition of Xa activity is calculated from OD405 nm value from the experimental and control sample.
(§2) Recombinant soluble TF, consisting of amino acids 1-219 of the mature protein sequence was expressed in E. coli and purified using a Mono Q Sepharose FPLC. Recombinant human VIIa was purchased from American Diagnostica, Greenwich Conn. and chromogenic substrate N-Methylsulfonyl-D-phe-gly-arg-p-nitroaniline was prepared by American Peptide Company, Inc., Sunnyvale, Calif. Factor Xa was obtained from Enzyme Research Laboratories, South Bend Ind., thrombin from Calbiochem, La Jolla, Calif., and trypsin and L-BAPNA from Sigma, St. Louis Mo. The chromogenic substrates S-2765 and S-2238 were purchased from Chromogenix, Sweden.

[2] = biological target: recombinant soluble tissue factor and recombinant human factor VIIa (TF-VIIa) (Homo sapiens, UniProt P08709); assay: TF-VIIa Assay; details: read-out: TF-VIIA IC50
Procedure: as §1, with “In this assay 100 nM recombinant soluble tissue” for “Human”, “factor” for “factor Xa (0.3 nM)”, “2 nM recombinant human factor VIIa” for “0.15 mM N-a-Benzyloxycarbonyl-D-arginyl-L-glycyl-L-arginine-p-nitroaniline-dihydrochloride (S-2765)”, “containing 0.4 mM of the substrate, N-Methylsulfonyl-D-phe-gly-arg-p-nitroaniline and” for “containing”, “(5 mM CaCl2, 50” for “(50”, “TF-VIIa” for “Xa”
as §2

[3] = biological target: Trypsin (type 1× from porcine pancreas) (Sus scrofa, UniProt P00761); assay: Trypsin Assay; details: read-out: Trpysin II IC50
Procedure: Trypsin (5 ug/ml; type 1× from porcine pancreas) and 0.375 mM N-α-Benzoyl-L-arginine-p-nitroanilide (L-BAPNA) are added to a 96-well assay plate containing either inhibitor or buffer (50 mM Tris-HCl, pH 8.0, 100 mM NaCl, 0.1% BSA). The reactions, in a final volume of 100 ul are measured immediately at 405 nm to determine background absorbance. The plate is incubated at room temperature for 60 min, at which time the rate of hydrolysis of the substrate is measured by monitoring the reaction at 405 nm for the release of p-nitroaniline. Percent inhibition of trypsin activity is calculated from OD405 nm value from the experimental and control sample.
as §2

[4] = biological target: Human thrombin (Homo sapiens, UniProt P00734); assay: Thrombin Assay; details: read-out: Thrombin II IC50
Procedure: as §1, with “thrombin (0.28 nm)and 0.06” for “factor Xa (0.3 nM) and 0.15”, “H-D-Phenylalanyl-L-pipecolyl-L-arginine-p-nitroaniline dihydrochloride” for “N-a-Benzyloxycarbonyl-D-arginyl-L-glycyl-L-arginine-p-nitroaniline-dihydrochloride (S-2765)”, “thrombin” for “Xa”, “OD405nm” for “OD405 nm”
as §2

| pIC50 [1] | pIC50 [2] | pIC50 [3] | pIC50 [4] | pIC50 ([1]; tested form: TFA) | pIC50 ([2]; tested form: TFA) | pIC50 ([3]; tested form: TFA) | pIC50 ([4]; tested form: TFA) | SMILES |
| --- | --- | --- | --- | --- | --- | --- | --- | --- |
| 4.12 | 4.74 | 6.33 | 4.31 | – | – | – | – | CC(C)Nc1ccc(-c2ccccc2-c2ccc(F)cc2)c(CC(=O)NCc2ccc(C(=N)N)cc2)[n+]1[O-] |
| – | – | – | – | < 4.00 | 6.62 | 7.70 | 5.06 | COC(=O)c1cc(N)cc(-c2ccc(NC(C)C)[n+]([O-])c2CC(=O)NCc2ccc(C(=N)N)cc2)c1 |
